Key:
[1] = biological target: human recombinant AChE (E.C. 3.1.1.7) (Homo sapiens, UniProt P22303); format: biochemical; conditions: 100 µM
[2] = biological target: human plasma BuChE (E.C. 3.1.1.8) (Homo sapiens, UniProt P06276); format: biochemical; conditions: tested at 100 µM compound concentration

Protein sequences, listed by entry. Tags and fused reporters are not part of them. Residues count along the entry.
UniProt P22303, 32-614: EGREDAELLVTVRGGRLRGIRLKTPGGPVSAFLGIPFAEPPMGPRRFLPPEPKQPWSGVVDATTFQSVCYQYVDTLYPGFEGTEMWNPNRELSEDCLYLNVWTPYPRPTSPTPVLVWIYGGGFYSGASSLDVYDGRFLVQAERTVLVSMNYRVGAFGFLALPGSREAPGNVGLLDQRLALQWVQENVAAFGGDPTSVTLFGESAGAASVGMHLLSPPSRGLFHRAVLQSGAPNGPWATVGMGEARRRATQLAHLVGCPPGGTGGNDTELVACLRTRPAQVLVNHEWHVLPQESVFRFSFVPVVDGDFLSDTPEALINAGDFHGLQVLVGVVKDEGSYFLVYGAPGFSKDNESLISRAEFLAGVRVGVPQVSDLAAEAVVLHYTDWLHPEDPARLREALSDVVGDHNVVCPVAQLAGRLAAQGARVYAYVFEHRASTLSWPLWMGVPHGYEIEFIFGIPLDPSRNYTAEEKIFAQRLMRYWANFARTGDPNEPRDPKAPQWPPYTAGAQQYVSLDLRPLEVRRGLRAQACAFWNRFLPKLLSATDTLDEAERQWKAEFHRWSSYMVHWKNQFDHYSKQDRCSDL
UniProt P06276, 29-602: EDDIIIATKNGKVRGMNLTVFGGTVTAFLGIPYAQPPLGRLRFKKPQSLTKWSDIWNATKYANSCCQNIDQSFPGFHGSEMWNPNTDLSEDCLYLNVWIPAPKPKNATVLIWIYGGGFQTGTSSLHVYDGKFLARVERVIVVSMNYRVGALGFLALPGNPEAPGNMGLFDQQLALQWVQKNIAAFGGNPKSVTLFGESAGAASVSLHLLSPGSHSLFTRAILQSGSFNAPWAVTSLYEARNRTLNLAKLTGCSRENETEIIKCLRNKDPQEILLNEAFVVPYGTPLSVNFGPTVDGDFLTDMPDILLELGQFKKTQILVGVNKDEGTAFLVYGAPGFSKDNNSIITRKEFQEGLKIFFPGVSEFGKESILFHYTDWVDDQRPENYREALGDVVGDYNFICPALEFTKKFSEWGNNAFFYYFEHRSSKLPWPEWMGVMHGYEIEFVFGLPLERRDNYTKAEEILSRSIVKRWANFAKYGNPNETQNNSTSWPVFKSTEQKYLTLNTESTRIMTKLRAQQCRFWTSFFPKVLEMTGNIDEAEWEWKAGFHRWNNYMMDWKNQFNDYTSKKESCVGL

CNC(=O)Oc1ccc2c(c1)[C@]1(C)CCN(C)[C@@H]1N2C [eserine, reference compound]
% Inhibition hAChE ± SEM [1]: 99.98 ± 0.02% | % Inhibition hBuChE ± SEM [2]: 99.78 ± 0.04%

Source: publication PMC9692855, “Amaryllidaceae Alkaloids from Clivia miniata (Lindl.) Bosse (Amaryllidaceae): Isolation, Structural Elucidation, and Biological Activity” (Plants, 2022)
